Results from patent US9000183B2, “Cyclohexane-1,2′-indene-1′,2″-imidazol compounds and their use as BACE inhibitors” (AstraZeneca AB, priority 2012, dated 2015).

Test system: sAPPβ release, SH-SY5Y cells
Assay: sAPPβ release assay
Assay type: cell-based
Details: 17 h incubation
Description: SH-SY5Y cells were cultured in DMEM/F-12 with Glutamax, 10% FCS and 1% non-essential amino acids and cryopreserved and stored at −140° C. at a concentration of 7.5−9.5×10^6 cells per vial. Thaw cells and seed at a conc. of around 10000 cells/well in DMEM/F-12 with Glutamax, 10% FCS and 1% non-essential amino acids to a 384-well tissue culture treated plate, […] cell susp/well. The cell plates were then incubated for 7-24 h at 37° C., 5% CO2. The cell medium was removed, followed by addition of 30 μL compound diluted in DMEM/F-12 with Glutamax, 10% FCS, 1% non-essential amino acids and 1% PeSt to a final conc. of 1% DMSO. The compounds were incubated with the cells for 17 h (overnight) at 37° C., 5% CO2. Meso Scale Discovery (MSD) plates were used for the detection of sAPPβ release. MSD sAPPβ plates were blocked in 1% BSA in Tris wash buffer (40 μL/well) for 1 h on shake at r.t. and washed 1 time in Tris wash buffer (40 μL/well). 20 μL of medium was transferred to the pre-blocked and washed MSD sAPPβ microplates, and the cell plates were further used in an ATP assay to measure cytotoxicity. The MSD plates were incubated with shaking at r.t. for 2 h and the media discarded. 10 μL detection antibody was added (1 nM) per well followed by incubation with shaking at r.t. for 2 h and then discarded. 40 μL Read Buffer was added per well and the plates were read in a SECTOR Imager.

IC50 | IC50 (Homo sapiens) | Structure (SMILES)
986 nM |  | CO[C@H]1CC[C@]2(CC1)Cc1cc(F)c(-c3cc(Cl)cc(C#N)c3)cc1[C@]21N=C(C)C(N)=N1 (single isomer, unassigned; isomer 2) [6 Isomer 2]
0.8 nM |  | CO[C@H]1CC[C@]2(CC1)Cc1cc(F)c(-c3cc(Cl)cc(C#N)c3)cc1[C@@]21N=C(C)C(N)=N1 (single isomer, unassigned; isomer 1) [6 Isomer 1]
 | 176 nM | COC1CCC2(CC1)Cc1cc(F)c(Br)cc1C21N=C(C)C(N)=N1 (stereo not drawn) [Example 4, 6′-Bromo-5′-fluoro-4-methoxy-5″-methyl-3′H-dispiro[cyclohexane-1,2′-indene-1′,2″-imidazol]-4″-amine]
